Assay results taken from ChEMBL document CHEMBL2346500, “Design and synthesis of dual-action inhibitors targeting histone deacetylases and 3-hydroxy-3-methylglutaryl coenzyme A reductase for cancer treatment” (J Med Chem, 2013).

How the values were obtained:
[1] = biological target: T1, Protein deacetylase HDAC6 (Homo sapiens, UniProt Q9UBN7); assay: Inhibition of recombinant HDAC6 (unknown origin) after 10 mins by fluorimetric analysis
T1 sequence (Q9UBN7 whole entry): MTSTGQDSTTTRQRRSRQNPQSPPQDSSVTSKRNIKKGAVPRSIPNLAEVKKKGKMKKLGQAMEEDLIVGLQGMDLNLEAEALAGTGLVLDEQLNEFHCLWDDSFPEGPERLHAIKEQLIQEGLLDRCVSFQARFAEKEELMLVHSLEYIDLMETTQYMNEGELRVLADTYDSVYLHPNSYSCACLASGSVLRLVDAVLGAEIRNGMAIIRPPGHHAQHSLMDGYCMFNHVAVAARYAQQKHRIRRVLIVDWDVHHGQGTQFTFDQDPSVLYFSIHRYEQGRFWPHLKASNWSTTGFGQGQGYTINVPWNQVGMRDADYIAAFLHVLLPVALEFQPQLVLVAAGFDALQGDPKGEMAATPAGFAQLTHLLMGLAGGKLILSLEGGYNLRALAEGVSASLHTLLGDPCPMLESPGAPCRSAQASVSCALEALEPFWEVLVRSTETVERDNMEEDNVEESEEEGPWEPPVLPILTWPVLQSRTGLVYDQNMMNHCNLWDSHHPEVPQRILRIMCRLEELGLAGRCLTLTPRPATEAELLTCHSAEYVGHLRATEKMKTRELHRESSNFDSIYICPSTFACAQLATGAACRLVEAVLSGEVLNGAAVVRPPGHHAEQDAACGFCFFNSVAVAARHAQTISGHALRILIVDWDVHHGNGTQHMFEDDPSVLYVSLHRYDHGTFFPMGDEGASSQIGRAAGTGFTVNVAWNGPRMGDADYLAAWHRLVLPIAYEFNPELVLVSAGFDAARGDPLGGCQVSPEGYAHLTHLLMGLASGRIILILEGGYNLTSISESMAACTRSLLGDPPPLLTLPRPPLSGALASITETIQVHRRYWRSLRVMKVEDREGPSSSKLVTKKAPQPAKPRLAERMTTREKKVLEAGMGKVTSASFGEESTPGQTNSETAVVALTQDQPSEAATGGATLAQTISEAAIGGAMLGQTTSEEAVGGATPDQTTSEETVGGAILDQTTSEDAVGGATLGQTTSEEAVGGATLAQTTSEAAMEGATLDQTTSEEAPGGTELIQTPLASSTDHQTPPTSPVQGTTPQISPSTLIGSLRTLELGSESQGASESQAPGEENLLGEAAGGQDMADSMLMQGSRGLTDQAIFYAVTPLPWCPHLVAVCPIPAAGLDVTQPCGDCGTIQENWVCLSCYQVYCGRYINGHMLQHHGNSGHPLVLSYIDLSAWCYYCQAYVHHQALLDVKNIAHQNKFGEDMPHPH

[2] = biological target: T2, 3-hydroxy-3-methylglutaryl-coenzyme A reductase (Homo sapiens, UniProt P04035); assay: Inhibition of recombinant HMG-CoA reductase (unknown origin) after 10 mins by spectrophotometric analysis
T2 sequence (P04035 whole entry): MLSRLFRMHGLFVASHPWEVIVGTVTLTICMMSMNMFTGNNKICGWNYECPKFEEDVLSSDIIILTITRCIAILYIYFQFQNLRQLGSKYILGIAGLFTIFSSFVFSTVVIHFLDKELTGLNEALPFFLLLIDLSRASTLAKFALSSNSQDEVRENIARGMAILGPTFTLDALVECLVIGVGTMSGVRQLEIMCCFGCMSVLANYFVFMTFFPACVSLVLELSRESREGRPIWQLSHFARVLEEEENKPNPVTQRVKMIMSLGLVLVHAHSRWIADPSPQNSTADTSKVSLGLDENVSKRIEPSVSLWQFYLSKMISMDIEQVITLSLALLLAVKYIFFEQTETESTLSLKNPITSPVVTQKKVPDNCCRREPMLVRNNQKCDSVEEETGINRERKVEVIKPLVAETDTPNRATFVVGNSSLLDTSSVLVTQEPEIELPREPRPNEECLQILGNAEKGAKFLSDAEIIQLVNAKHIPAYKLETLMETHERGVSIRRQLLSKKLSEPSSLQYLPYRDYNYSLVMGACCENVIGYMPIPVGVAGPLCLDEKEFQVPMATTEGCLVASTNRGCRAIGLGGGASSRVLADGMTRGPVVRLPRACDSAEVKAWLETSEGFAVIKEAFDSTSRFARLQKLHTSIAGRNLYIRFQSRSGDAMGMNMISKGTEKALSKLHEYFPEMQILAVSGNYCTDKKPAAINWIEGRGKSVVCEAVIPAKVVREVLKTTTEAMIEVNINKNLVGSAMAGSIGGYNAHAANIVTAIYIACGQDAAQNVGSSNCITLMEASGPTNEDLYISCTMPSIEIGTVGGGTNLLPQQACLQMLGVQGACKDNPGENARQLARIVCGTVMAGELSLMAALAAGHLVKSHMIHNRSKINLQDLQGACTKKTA

CC(C)c1c(C(=O)Nc2ccccc2)c(-c2ccccc2)c(-c2ccc(F)cc2)n1CC[C@@H](O)C[C@@H](O)CC(=O)O [ATORVASTATIN]
IC50 [1]: 14.5 µM
IC50 [2]: 0.0129 µM
